# Assay results as given in patent US11173151B2, “Substituted triazole derivatives and uses thereof” (BAYER AKTIENGESELLSCHAFT, priority 2017, dated 2021).
# Sequences of proteins named here, by UniProt entry; tags and fusion partners are left off.
# UniProt P37288, whole entry: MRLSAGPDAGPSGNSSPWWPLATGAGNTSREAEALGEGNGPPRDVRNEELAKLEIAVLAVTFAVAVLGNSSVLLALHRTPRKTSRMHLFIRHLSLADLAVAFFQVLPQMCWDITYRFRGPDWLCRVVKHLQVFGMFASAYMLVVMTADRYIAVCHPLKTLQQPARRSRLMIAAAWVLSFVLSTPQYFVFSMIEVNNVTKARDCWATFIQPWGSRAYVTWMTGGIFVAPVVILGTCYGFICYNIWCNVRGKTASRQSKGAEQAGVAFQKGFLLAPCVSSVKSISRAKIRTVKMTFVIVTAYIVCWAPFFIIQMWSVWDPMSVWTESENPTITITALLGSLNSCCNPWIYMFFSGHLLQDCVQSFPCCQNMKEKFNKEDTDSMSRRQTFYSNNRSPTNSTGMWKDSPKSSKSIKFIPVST
# UniProt P30518, whole entry: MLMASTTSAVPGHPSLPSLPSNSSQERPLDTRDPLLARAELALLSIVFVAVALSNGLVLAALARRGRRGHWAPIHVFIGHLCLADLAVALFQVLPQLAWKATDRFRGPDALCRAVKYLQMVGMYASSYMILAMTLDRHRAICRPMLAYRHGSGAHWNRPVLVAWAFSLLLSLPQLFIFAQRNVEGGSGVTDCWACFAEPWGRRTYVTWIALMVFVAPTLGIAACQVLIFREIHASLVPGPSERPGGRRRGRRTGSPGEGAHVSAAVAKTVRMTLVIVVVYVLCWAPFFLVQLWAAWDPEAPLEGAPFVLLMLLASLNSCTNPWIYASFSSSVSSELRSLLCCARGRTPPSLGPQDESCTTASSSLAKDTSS
# Tests used:
# human V1a receptor = human V1a receptor (Homo sapiens, UniProt P37288); experiment: Cellular in vitro assay for determining vasopressin receptor activity, V1a receptor cell line (CHO, aequorin luminescence)
# Procedure: (§1) B-1. Cellular In Vitro Assay for Determining Vasopressin Receptor Activity
# (§2) The identification of agonists and antagonists of the V1a and V2 vasopressin receptors from humans, rats and dogs as well as the quantification of the activity of the compounds of the invention is carried out using recombinant cell lines. These cell lines originally derive from a hamster's ovary epithelial cell (Chinese Hamster Ovary, CHO K1, ATCC: American Type Culture Collection, Manassas, Va. 20108, USA). The test cell lines constitutively express the human, rat or dog V1a or V2 receptors. […] The resulting vasopressin receptor cells react to stimulation of the recombinantly expressed V1a receptors by intracellular release of calcium ions, which can be quantified by the resulting photoprotein luminescence. […] The bioluminescence of the cell lines is detected using a suitable luminometer [Milligan G, Marshall F, Rees S, Trends in Pharmacological Sciences 17, 235-237 (1996)]. […]
# On the day before the assay, the cells are plated out in culture medium (DMEM/F12, 2% FCS, 2 mM glutamine, 10 mM HEPES, 5 μg/ml coelenterazine) in 384-well microtiter plates and kept in a cell incubator (96% humidity, 5% v/v CO2, 37° C.). […] The resulting light signal is measured immediately in a luminometer. […]
# human V2 receptor = human V2 receptor (Homo sapiens, UniProt P30518); experiment: Cellular in vitro assay for determining vasopressin receptor activity, V2 receptor cell line (CHO, CRE-luciferase); settings: read-out: IC50 hV2; CHO cell line transfected with human V2 receptor; [Arg8]-vasopressin at EC50 concentration, 3 hours
# Procedure: as §1, §2
# On the day before the assay, the cells are plated out in culture medium (DMEM/F12, 2% FCS, 2 mM glutamine, 10 mM HEPES) in 384-well microtiter plates and kept in a cell incubator (96% humidity, 5% v/v CO2, 37° C.). […] Upon addition of the cell lysis reagent Triton™ and the substrate luciferin, luminescence of firefly luciferase is measured in a luminometer. […]
smiles,measurement,setting,value
COCC(=O)Nc1ncccc1-n1cnc(Cn2nc(-c3ccc(Cl)cc3)n(C[C@H](O)C(F)(F)F)c2=O)n1,IC50,"human V1a receptor; read-out: IC50 hV1a, CHO cell line transfected with human V1a receptor, [Arg]-vasopressin at EC50 concentration",27 nM
same,ratio IC50 hV2/hV1a,human V1a receptor; selectivity ratio IC50 hV2 / IC50 hV1a,50.0
same,IC50,human V2 receptor,1350 nM
